Tests used:
Prothrombin [1] = molecular target: T1, Prothrombin (Homo sapiens, UniProt P00734); assay: (§1) Inhibitory activity against thrombin
Summary of the method: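 Human α-thrombin at 0.02 NIH U/mL assay level in 0.05 M Tris-HCl pH 7.4, I = 0.15, with 1 g/L BSA. Ten inhibitor levels spanning 0.06 nM–133 µM, diluted from 0.1 mM DMSO stocks. Substrate pyroGlu-Pro-pNA (S-2366) at 0.3 mM assay level; A405 read after 40 min. IC50 taken from dose-response curves. Ki = IC50/(1+[S]/Km), Km 0.33 mM.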

Prothrombin [2] = molecular target: T1, Prothrombin; assay: as §1; remark: listed apart in the source

IC50 (Prothrombin [1]) [µM] | IC50 (Prothrombin [2]) [µM] | Compound
3.16 | – | CCc1cc(OCCc2ccc(CN)cc2)cc(OS(=O)(=O)c2cc(C)ccc2OC)c1
0.288 | – | CCc1cc(OCCc2ccc(C(=N)N)c(O)c2)cc(OS(=O)(=O)c2cc(Cl)cc(Cl)c2OC)c1
– | 56.2 | COc1c(Cl)cc(Cl)cc1S(=O)(=O)Oc1cc(C)cc(OCCc2cccc(O)c2)c1

— ChEMBL document CHEMBL1134416, “Statistical molecular design, parallel synthesis, and biological evaluation of a library of thrombin inhibitors” (J Med Chem, 2001)
